# In patent US8507219B2, “Method of treating inflammation with statins” (MUSC Foundation for Research Development, priority 1997, dated 2013):
# System: X-ALD fibroblasts
compound,measurement,value
CC[C@H](C)C(=O)O[C@H]1C[C@@H](C)C=C2C=C[C@H](C)[C@H](CC[C@@H]3C[C@@H](O)CC(=O)O3)[C@H]21 [Lovastatin],cytotoxicity at higher doses,cytotoxic to the X-ALD fibroblasts
